Values of other authors, collected in publication PMC3463759 (Clinical cancer research : an official journal of the …, 2012).

Tested on: ovarian cancer cell lines
Conditions: cited from earlier work

## Cc1nc(Nc2ncc(C(=O)Nc3c(C)cccc3Cl)s2)cc(N2CCN(CCO)CC2)n1 [dasatinib, N-(2-chloro-6-methyl-phenyl)-2-(6-(4-(2-hydroxyethyl)-piperazin-1-yl)-2-methylpyrimidin-4-ylamino)thiazole-5-carboxamide]
  activity of the combination: synergistic and additive activity
